Test system: H9 cells
Assay: qHTS for survival of dissociated H9 cells (CellTiter-Glo, 24 hours after seeding)
Type: cell-based, human
Excerpt: FIG. 2 schematically illustrates qHTS procedure.
All the screed compounds were received pre-plated at the pre-determined concentrations. […] Curve classification is explained in Huang et al. “Chemical genomics profiling of environmental chemical modulation of human nuclear receptors” Environ. Health. Perspect.

SMILES: COc1ccc(-c2c(C)c(C(=O)NN3CCCCC3)nn2-c2ccc(Cl)cc2Cl)cc1 [NIDA-41020]
- Max (maximum activity value from all tested concentrations) (H9 cell survival normalized to 10 μM Y-27632 (taken to be 100%)): 26.91%
- AC50 (H9 cell survival, CellTiter-Glo 24 hours after seeding, read-out: AC50 (concentration at 50% efficacy)): 23.3 µM
- Efficacy (activity range between predicted activities at zero and infinite doses, Hill equation) (H9 cell survival, normalized to 10 μM Y-27632): 30.5

From patent publication US20210348119A1, “COMPOSITIONS AND METHODS FOR CELL CULTURE” (The United States of America as Represented By The …, priority 2018, published 2021)
